Results published in US10869929B2, “Phosphonate linkers and their use to facilitate cellular retention of compounds” (priority 2016, dated 2020).

The chains behind the UniProt entries cited, without tags or fusion partners. Where a name states a change or a piece, a line headed by the entry shows the natural chain unless it says otherwise.
UniProt P04150: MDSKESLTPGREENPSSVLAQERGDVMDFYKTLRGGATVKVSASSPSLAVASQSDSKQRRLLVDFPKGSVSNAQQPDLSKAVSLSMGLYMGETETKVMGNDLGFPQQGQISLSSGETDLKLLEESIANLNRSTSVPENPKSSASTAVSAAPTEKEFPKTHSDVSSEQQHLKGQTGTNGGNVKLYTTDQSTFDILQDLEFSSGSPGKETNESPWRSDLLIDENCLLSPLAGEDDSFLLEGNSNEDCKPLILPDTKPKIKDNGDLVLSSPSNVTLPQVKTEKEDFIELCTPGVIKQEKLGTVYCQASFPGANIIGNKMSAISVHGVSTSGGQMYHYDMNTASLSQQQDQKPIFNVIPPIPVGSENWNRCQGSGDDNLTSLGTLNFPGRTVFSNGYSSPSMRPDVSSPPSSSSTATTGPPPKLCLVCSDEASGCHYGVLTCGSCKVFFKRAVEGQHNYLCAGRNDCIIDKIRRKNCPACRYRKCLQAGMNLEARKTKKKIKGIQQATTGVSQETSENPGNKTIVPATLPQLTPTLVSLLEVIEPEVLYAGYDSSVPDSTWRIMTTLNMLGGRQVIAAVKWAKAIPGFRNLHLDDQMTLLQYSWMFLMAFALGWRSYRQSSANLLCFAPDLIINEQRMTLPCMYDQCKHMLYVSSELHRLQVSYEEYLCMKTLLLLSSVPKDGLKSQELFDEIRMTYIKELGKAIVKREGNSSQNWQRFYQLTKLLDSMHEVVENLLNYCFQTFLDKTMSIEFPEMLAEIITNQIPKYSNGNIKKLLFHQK

Legend:
glucocorticoid receptor = glucocorticoid receptor (Homo sapiens (Human), UniProt P04150); experiment: PolarScreen Glucocorticoid Receptor Competitor Assay (GR binding); conditions: fluormone GS red, GR full length protein; read-out: GR Bind IC50
MDCKII cells = experiment: Apparent permeability in MDCKII cells; conditions: 1 μM, t=3 hr, average of A to B and B to A Papp

(6-(3-((3aR,4aS,4bS,11aR,11bS,12S,13aS,13bS)-12-hydroxy-13b-(2-hydroxyacetyl)-11a,13a-dimethyl-2-propyl-4,4a,5,6,11,11a,11b,12,13,13a-decahydro-[1,3]dioxolo[4″,5″:3′,4′]cyclopenta[1′,2′:5,6]naphtho[1,2-f]indazol-8 (3aH,4bH,13bH)-yl)phenoxy)hexyl)phosphonic acid [Compound 27]
IC50 (glucocorticoid receptor): 2 nM | MDCK Permeability (cm × 10−6/sec) (MDCKII cells): 1.8 cm × 10−6/sec
